Measured values as given in patent US20080221060A1, “Therapeutic Compounds” (priority 2004, published 2008).

By UniProt entry, the sequences of proteins in these tests, tags left out.
UniProt P30543, whole entry: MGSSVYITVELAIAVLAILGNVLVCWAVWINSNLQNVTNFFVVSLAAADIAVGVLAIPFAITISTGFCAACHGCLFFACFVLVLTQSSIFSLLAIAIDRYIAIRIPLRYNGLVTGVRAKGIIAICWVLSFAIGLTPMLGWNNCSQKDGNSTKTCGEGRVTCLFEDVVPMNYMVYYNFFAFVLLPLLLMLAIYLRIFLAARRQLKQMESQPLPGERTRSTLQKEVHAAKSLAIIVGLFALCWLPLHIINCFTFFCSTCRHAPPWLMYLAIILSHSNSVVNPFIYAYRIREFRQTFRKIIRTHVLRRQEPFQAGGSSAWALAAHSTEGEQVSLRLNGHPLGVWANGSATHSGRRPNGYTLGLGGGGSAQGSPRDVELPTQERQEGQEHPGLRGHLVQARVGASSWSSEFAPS

Target: adenosine receptors (rat striatal membranes, [3H]-CGS21680) (Rattus norvegicus, UniProt P30543)
Assay: Ki from displacement of [3H]-CGS21680 in rat striatal membranes at pH 5.5 and pH 7.4
Assay type: binding
Parameters: from tissue; host or cells: rat striatum (membranes)
Settings: 2 nM [3H]-CGS21680, 90 minutes at 22° C.

Row | Ki | Structure (SMILES)
1 | 24 nM | Cc1ccccc1Oc1nc(N)c2ncn([C@@H]3O[C@H](CO)[C@@H](O)[C@H]3O)c2n1 [Compound 14]
2 | 24 nM | CN(C)c1nc(N)c2ncn([C@@H]3O[C@H](CO)[C@@H](O)[C@H]3O)c2n1 [Compound 21]
